This is an account of results in PubChem BioAssay AID492953 (The Scripps Research Institute Molecular Screening Center, 2010).

Chains of the proteins cited; added tags and fusions are not shown.
UniProt P68402, whole entry: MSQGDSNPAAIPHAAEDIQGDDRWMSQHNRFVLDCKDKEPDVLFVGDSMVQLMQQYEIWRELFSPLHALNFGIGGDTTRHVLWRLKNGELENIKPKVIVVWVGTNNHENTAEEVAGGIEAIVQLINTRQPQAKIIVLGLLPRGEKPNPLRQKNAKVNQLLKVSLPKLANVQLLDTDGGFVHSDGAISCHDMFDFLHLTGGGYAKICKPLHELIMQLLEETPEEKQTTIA

The list shows a part of the results, in another mix than the full data. Some structures show a salt or complex split into parts, the way the source records it. Active and inactive are the calls of the source.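 Rule for the calls: active = inhibition above the mean of all tested compounds plus 3 SD (cut at about 24% in these data); inactive = the rest.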

In the experiment the target is Platelet-activating factor acetylhydrolase IB subunit alpha2 (Homo sapiens) (UniProt P68402). Put plainly: PAFAH1B2 enzyme inhibitors, primary screen, biochemical, fluorescence polarization, human (AID 492953).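 Note: 0% = enzyme with DMSO and 100% = wells lacking PAFAH1B2.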 To be noted: recombinant PAFAH1B2, FP-rhodamine activity probe, at 3.39 µM, hits give high values. (Polarisation of emitted light reports the rotation of a fluorescent probe.)
With `O=[N+]([O-])c1cc([N+](=O)[O-])c(Nc2cccnc2)c([N+](=O)[O-])c1`, the inhibition was inactive: 7.84%. On to `O=[N+]([O-])c1ccc2c(c1)C=Nc1ccccc1O2`, for which the inhibition is inactive: -0.68%.

As to `CC(C)(C)c1ccc(OP(C)(=O)Nc2ccc(SC(F)(F)F)cc2)cc1` (stereo not given), the inhibition is active: 30.4%. Under `Cc1cccc(C)c1OP(C)(N)=O` (stereo not given) stands inactive: -4.78%.

For `COc1ccccc1OP(C)(=O)Nc1ccc(C)cc1` (stereo not given), the inhibition is inactive: -1.78%. On to `Cc1ccc(NP(C)(=O)Oc2ccccc2)c(C)c1` (stereo not given), for which the inhibition was inactive: 6.96%. Under `CCOC(=O)c1ccc(NP(C)(=O)Oc2ccccc2)cc1` (stereo not given) stands inactive: -1.74%; under `Cc1cc(C)cc(OP(C)(N)=O)c1` (stereo not given), inactive: 2.67%. In the case of `COc1ccccc1OP(C)(=O)Nc1cc(Cl)ccc1C` (stereo not given), the inhibition was inactive: 3.7%. The figure for `COc1ccc(OP(C)(=O)Nc2cccc(F)c2)cc1` (stereo not given) is inactive: 4.58%.

On to `CCN(CC)CCCOC(=O)C(O)(c1ccccc1)c1ccccc1`, for which the inhibition was inactive: 3.28%.

Take `Cc1cccc(C)c1OP(C)(=O)Nc1ccc(SC(F)(F)F)cc1` (stereo not given): the inhibition was inactive: 1.72%.

Take `CP(=O)(Oc1ccccc1)OC(c1ccccc1)C(F)(F)F` (stereo not given): the inhibition is inactive: 9.57%. The figure for `CP(=O)(NC(=O)Nc1ccccc1)Oc1ccccc1` (stereo not given) is inactive: 3.36%; for `CCc1ccc(OP(C)(=O)N2CCN(c3ccc([N+](=O)[O-])cc3)CC2)cc1` (stereo not given) it is inactive: 10.5%. Under `Cc1cc(C)cc(OP(C)(=O)Nc2ccc(SC(F)(F)F)cc2)c1` (stereo not given) stands inactive: 3.89%; under `CCOC(=O)c1ccc(NP(C)(=O)Oc2ccc(OC)cc2)cc1` (stereo not given), inactive: 2.58%. Under `CCOP(C)(=S)SCC(=O)NC(C)C(=O)O` (stereo not given) stands inactive: 12.6%; under `CP(=O)(Nc1ccccn1)Oc1ccc(Cl)cc1` (stereo not given), inactive: 2.24%; under `CP(=S)(Nn1cnnc1)Oc1ccccc1` (stereo not given), inactive: 4.76%. As for `CP(=O)(Nc1ccccc1Br)Oc1ccccc1` (stereo not given), the inhibition is inactive: 2.85%.

Turning to `COc1ccccc1OP(C)(=O)Nc1ccccc1` (stereo not given), the inhibition is inactive: 6.09%. As for `CC1=C2N=C(C=C3N=C(C(C)=C4[N-][C@@](C)([C@@H]5N=C1[C@](C)(CCC(=O)NC[C@@H](C)OP(=O)([O-])O[C@H]1[C@@H](O)[C@@H](n6cnc7cc(C)c(C)cc76)O[C@@H]1CO)[C@H]5CC(N)=O)[C@@](C)(CC(N)=O)[C@@H]4CCC(N)=O)[C@@](C)(CC(N)=O)[C@@H]3CCC(N)=O)C(C)(C)[C@@H]2CCC(N)=O.[C-]#N.[Co+3]`, the inhibition was inactive: 6.62%. `O=[N+]([O-])c1cc([N+](=O)[O-])c(Nc2nnnn2CCO)c([N+](=O)[O-])c1`: the inhibition is inactive: 7.61%. Under `CCOC(=O)C(CC)C1=NC(C)(C)Cc2ccccc21.O=[N+]([O-])c1cc([N+](=O)[O-])c(O)c([N+](=O)[O-])c1` (stereo not given) stands inactive: 8.31%. The figure for `CN1CCCCC1COC(=O)C1(O)c2ccccc2CCc2ccccc21` (stereo not given) is inactive: -0.55%; for `COc1ccccc1OP(C)(=O)Nc1c(C)cccc1C` (stereo not given) it is inactive: 4.83%; for `CCCOc1ccc(NP(C)(=O)Oc2ccc(Cl)cc2)cc1` (stereo not given) it is inactive: 2.44%. The figure for `CP(=O)(Nc1ccc(SC(F)(F)F)cc1)Oc1ccccc1` (stereo not given) is inactive: 7.78%; for `O=[N+]([O-])c1cc([N+](=O)[O-])c(-n2nnc3ccccc32)c([N+](=O)[O-])c1` it is inactive: 1.03%. With `O=[N+]([O-])c1cc([N+](=O)[O-])c(-c2cnn(-c3ccccc3)c2)c([N+](=O)[O-])c1`, the inhibition was inactive: 1.87%. Under `Cc1nc2ccc3ccccc3c2s1.O=[N+]([O-])c1cc([N+](=O)[O-])c(O)c([N+](=O)[O-])c1` stands inactive: 8.15%; under `COc1ccccc1OP(C)(=O)Nc1cccc(Br)c1` (stereo not given), inactive: 1.25%. The figure for `CCOC(=O)c1ccc(NP(C)(=O)Oc2cc(C)cc(C)c2)cc1` (stereo not given) is inactive: -1.21%. The figure for `Cc1cc(C)cc(OP(C)(=O)Nc2ccc(C)cc2C)c1` (stereo not given) is inactive: -1.44%; for `Cc1ccc(C)c(NP(C)(=O)Oc2ccccc2)c1` (stereo not given) it is inactive: 0.53%.

As for `Cc1cc(C)cc(OP(C)(=O)Nc2ccccn2)c1` (stereo not given), the inhibition was inactive: 7.77%.

Take `CP(=O)(Nc1cccc(Br)c1)Oc1ccccc1` (stereo not given): the inhibition was inactive: 4.82%. Under `O=C(O)c1cccc(Nc2c([N+](=O)[O-])cc([N+](=O)[O-])cc2[N+](=O)[O-])c1` stands inactive: 4.44%; under `CC1=NCCc2c1[nH]c1ccccc21.O=[N+]([O-])c1cc([N+](=O)[O-])c(O)c([N+](=O)[O-])c1`, inactive: -2.37%. Under `CCOC(=O)c1ccc(NP(C)(=O)Oc2ccc(F)cc2)cc1` (stereo not given) stands inactive: 2.06%; under `COc1ccc(OP(C)(=O)Nc2ccc(SC(F)(F)F)cc2)cc1` (stereo not given), inactive: 13.1%.

On to `Cc1c([N+](=O)[O-])cc([N+](=O)[O-])c(Br)c1[N+](=O)[O-]`, for which the inhibition is inactive: 2.96%.

As to `CCN(CC)CCCOC(=O)C(O)(c1ccccc1)C1CCCCC1` (stereo not given), the inhibition was inactive: 0.26%. The figure for `CP(=O)(Nc1ccccc1)Oc1ccc(F)cc1` (stereo not given) is inactive: -2.09%; for `CCCCCOc1ccc(NP(C)(=O)Oc2ccc(Cl)cc2Cl)cc1` (stereo not given) it is inactive: -1.42%; for `O=[N+]([O-])c1cc([N+](=O)[O-])c(OC2CCCCC2O)c([N+](=O)[O-])c1` (stereo not given) it is inactive: 1.57%.

As for `CP(=O)(Nc1ccccc1F)Oc1ccccc1` (stereo not given), the inhibition is inactive: 3.43%. As for `CC(C)c1ccc(OP(C)(=O)Nc2ccc(SC(F)(F)F)cc2)cc1` (stereo not given), the inhibition is active: 56.7%. The figure for `O=C(OC1CN2CCC1CC2)c1ccc([N+](=O)[O-])cc1` (stereo not given) is inactive: 6.23%; for `O=C(OCCN1CCN(CCOCc2ccccc2)CC1)C(O)(c1ccccc1)c1ccccc1` it is inactive: -1.64%. Consider `COc1ccc2c(c1O)-c1c(O)c(OC)cc3c1[C@H](C2)[N+](C)(C)CC3.O=[N+]([O-])c1cc([N+](=O)[O-])c([O-])c([N+](=O)[O-])c1[O-]`, for which the inhibition was inactive: 2.76%. Under `CP(=O)(Nc1ccc(SC(F)(F)F)cc1)Oc1ccc(F)cc1` (stereo not given) stands inactive: 8.26%; under `CCOP(C)(=S)SCC(=O)NC(C)(CC)C(=O)O` (stereo not given), inactive: 3.73%.

With `CP(=O)(Nc1ccc2c(c1)OCCO2)Oc1ccccc1` (stereo not given), the inhibition is inactive: 3.55%. The figure for `Cc1ccccc1NP(C)(=O)Nc1ccccc1C` is inactive: 4.56%; for `COc1ccc(OP(C)(=O)Nc2cccc(Br)c2)cc1` (stereo not given) it is inactive: 0.69%. Take `CN(C)CCOC(=O)C(O)(c1ccccc1)C1CCCCC1` (stereo not given): the inhibition is inactive: -0.36%. Under `COc1ccc(NP(C)(=O)Oc2ccccc2OC)cc1` (stereo not given) stands inactive: 3.8%; under `O=[N+]([O-])c1ccc(OP2(=O)COCCO2)cc1` (stereo not given), inactive: 3.27%; under `Cc1cc(-c2cccc3ccccc23)c(C)cn1.O=[N+]([O-])c1cc([N+](=O)[O-])c(O)c([N+](=O)[O-])c1`, inactive: 9.08%. The figure for `O=[N+]([O-])c1cc([N+](=O)[O-])c(NCC2CCS(=O)(=O)C2)c([N+](=O)[O-])c1` (stereo not given) is inactive: -6.04%; for `Cc1c(C(c2ccc3c(c2)OCO3)c2c(C)n(C)n(-c3ccccc3)c2=O)c(=O)n(-c2ccccc2)n1C.O=[N+]([O-])c1cc([N+](=O)[O-])c(O)c([N+](=O)[O-])c1` it is inactive: 4.53%.

In the case of `CCOC(=O)c1ccc(NP(C)(=O)Oc2ccc(Cl)cc2)cc1` (stereo not given), the inhibition is inactive: 4.35%. The figure for `CP(=O)(OC12CC3CC(CC(C3)C1)C2)OC12CC3CC(CC(C3)C1)C2` is inactive: 9.84%; for `CCN(CC)CC(O)COC(=O)C(O)(c1ccccc1)C1CCCCC1` (stereo not given) it is inactive: 5.32%.

With `COc1ccc(OP(C)(=O)Nc2ccc(Br)cc2)cc1` (stereo not given), the inhibition was inactive: -0.04%. Under `COc1ccccc1OP(C)(=O)Nc1c(C)n(C)n(-c2ccccc2)c1=O` (stereo not given) stands inactive: -0.13%.

With `O=C(OCCCN1CCCC1)C(O)(c1ccccc1)C1CCCCC1` (stereo not given), the inhibition was inactive: 0.79%. Under `CP(=O)(Oc1ccccc1)N1CCOC1=O` (stereo not given) stands inactive: 5.72%; under `CCc1ccc(OP(C)(=O)Nc2cccnc2)cc1` (stereo not given), inactive: -0.65%; under `COc1ccccc1OP(C)(=O)Nc1ccccc1Br` (stereo not given), inactive: 0.98%. The figure for `CC(C)(C)c1ccc(OP(C)(=O)O)cc1` is inactive: 5.2%; for `CP(=O)(Nc1ccc(Cl)cc1)Oc1ccc(F)cc1` (stereo not given) it is inactive: 2.03%; for `CN(C)C(=O)c1c([N+](=O)[O-])cc([N+](=O)[O-])cc1[N+](=O)[O-]` it is inactive: -1.02%. Under `COc1ccccc1OP(C)(=O)Nc1ccc(Br)cc1` (stereo not given) stands inactive: -0.57%.

With `COc1ccc(OP(C)(=O)Nc2ccccn2)cc1` (stereo not given), the inhibition is inactive: -7.12%. The figure for `CN(C)CCOC(=O)C(O)(c1ccccc1)C1CCCC1` (stereo not given) is inactive: -2.39%; for `Cc1c(NP(C)(=O)Oc2ccc(C(C)C)cc2)c(=O)n(-c2ccccc2)n1C` (stereo not given) it is inactive: -2.66%; for `O=[N+]([O-])c1cc([N+](=O)[O-])c(Nc2ccccn2)c([N+](=O)[O-])c1` it is inactive: 6.86%.

With `CP(=O)(Nc1ccccn1)Oc1ccccc1` (stereo not given), the inhibition was inactive: 0.3%. The figure for `COc1ccccc1OP(C)(=O)Nc1ccc(C)cc1C` (stereo not given) is inactive: 3.36%.

`CCc1ccc(OP(C)(=O)O)cc1`: the inhibition is inactive: 2.14%. Under `O=C1C(O)=C([N+](=O)[O-])C(=O)C(O)=C1[N+](=O)[O-]` stands inactive: 7.74%; under `Cc1cc(C)cc(OP(C)(=O)Nc2cccc(C(F)(F)F)c2)c1` (stereo not given), inactive: 2.6%; under `COc1ccccc1OP(C)(=O)Nc1ccc(C)c(C)c1` (stereo not given), inactive: 3.24%. The figure for `COc1ccc(OP(C)(=O)Nc2ccccc2Br)cc1` (stereo not given) is inactive: 1.12%; for `CCCCCCCCCCCCCCCC1C[N+](C)(C)CCOP(C)(=O)O1` (stereo not given) it is inactive: -2.72%.

Consider `CP(=O)(Nc1ccc(Cl)cc1Cl)Oc1ccccc1` (stereo not given), for which the inhibition was inactive: 3.12%. Under `CP(=O)(OCCOc1ccccc1)OCCOc1ccccc1` stands inactive: 2.18%.

One may read the inhibition as the drop in the measured response relative to a control, in per cent.
